{"source": "ChEMBL document CHEMBL6182942", "about": "“Discovery of a Selective, Novel TGF-βR1 Inhibitor GFH018 for the Treatment of Solid Tumors” (J Med Chem, 2025)", "key": {"Homo sapiens": {"species_on_record": "Homo sapiens", "assay": "Selectivity ratio of IC50 for p38alpha (unknown origin) to IC50 for TGFbetaR1 (unknown origin)"}, "NIH3T3": {"tested_on": "NIH3T3", "assay": "Antiproliferative activity against mouse NIH/3T3 cells by celltitter-glo assay", "type": "functional, cell-based"}, "MDR1": {"tested_on": "MDR1", "assay": "Efflux ratio of apparent permeability in dog MDCK-MDR1 cells at 2 uM measured over 150 mins by LC-MS/MS analysis", "type": "ADME, cell-based, Canis lupus familiaris"}}}
{"molecule": "CCOC(=O)/C=C/c1c(-c2c(-c3cccc(C)n3)nn3c2CCC3)ccc2ncnn12", "values": [{"measurement": "Ratio IC50", "setting": "Homo sapiens", "result": 18.2}, {"measurement": "IC50", "setting": "NIH3T3", "result": 1820, "unit": "nM"}, {"measurement": "efflux ratio at 2.5 h, 2 µM", "setting": "MDR1", "result": 0.54}]}
{"molecule": "Cc1cccc(-c2nn3c(c2-c2ccc4ncnn4c2/C=C/C(N)=O)CCC3)n1", "values": [{"measurement": "Ratio IC50", "setting": "Homo sapiens", "result": 66.2}]}
{"molecule": "Cc1cccc(-c2nn(Cc3cccc(C(F)F)c3)cc2-c2ccc3ncnn3c2/C=C/C(N)=O)n1", "values": [{"measurement": "Ratio IC50", "setting": "Homo sapiens", "result": 12.5}]}
{"molecule": "Cc1cccc(-c2nn3c(c2-c2ccc4ncnn4c2/C=C/C(C)(C)O)CCC3)n1", "values": [{"measurement": "Ratio IC50", "setting": "Homo sapiens", "result": "> 120"}]}
